Experimental data from paper PMC3973022, “Quercetin and quercetin 3-O-glycosides from Bauhinia longifolia (Bong.) Steud. show anti-Mayaro virus activity” (Parasites & Vectors, 2014).

Tested on: Mayaro virus (MAYV)
Format: cell-based
Details: CC50 in Vero cells / IC50 against MAYV
Procedure: Vero cells (African green monkey kidney, ATCC CCL-81) were grown at 37°C with 5% CO2, in Dulbecco’s modified Eagle’s medium (DMEM) (Life Technologies, USA) supplemented with 5% fetal bovine serum (Cultilab, BRA), 50 IU/mL of penicillin, and 50 μg/mL of streptomycin (Sigma-Aldrich, USA). Mayaro viruses (ATCC VR-66, lineage TR 4675) were propagated in Vero cells and viral stocks in 10% glycerol were kept at -70°C. Virus titer was determined by plaque assay (described under ‘Antiviral activity assay’).
Antiviral activity was evaluated using a virus yield inhibition assay. Briefly, confluent cell monolayers grown in 24-well plates were infected with MAYV (multiplicity of infection = 0.1) for 1 hour, then rinsed with PBS and treated for 24 hours (at 37°C and 5% CO2) with different concentrations (0–100 μg/ml) of flavonoids or extracts diluted in culture medium. After treatment, culture supernatants were recovered and used for titration of extracellular infectious virus particles. For virus titration, confluent cell monolayers in 24-well plates were infected with serial dilutions of recovered supernatants for 1 hour at 37°C, 5% CO2. […] Finally, cells were fixed with 20% formaldehyde and stained with 0.5% crystal violet in 20% ethanol, and viral plaques were counted. […]

Structure (SMILES): NC(=O)c1ncn([C@@H]2O[C@H](CO)[C@@H](O)[C@H]2O)n1 [Ribavirin, reference compound]
- SI (Selectivity Index = CC50/IC50): 8
